The test addresses T1, aromatase (Rattus norvegicus, UniProt P22443).
T1 construct: ovarian microsomes are obtained from rats treated with pregnant mares serum gonadotropin; from tissue; host or cells: ovarian microsomes from rats treated with pregnant mares serum gonadotropin
T1 sequence (P22443 1-508): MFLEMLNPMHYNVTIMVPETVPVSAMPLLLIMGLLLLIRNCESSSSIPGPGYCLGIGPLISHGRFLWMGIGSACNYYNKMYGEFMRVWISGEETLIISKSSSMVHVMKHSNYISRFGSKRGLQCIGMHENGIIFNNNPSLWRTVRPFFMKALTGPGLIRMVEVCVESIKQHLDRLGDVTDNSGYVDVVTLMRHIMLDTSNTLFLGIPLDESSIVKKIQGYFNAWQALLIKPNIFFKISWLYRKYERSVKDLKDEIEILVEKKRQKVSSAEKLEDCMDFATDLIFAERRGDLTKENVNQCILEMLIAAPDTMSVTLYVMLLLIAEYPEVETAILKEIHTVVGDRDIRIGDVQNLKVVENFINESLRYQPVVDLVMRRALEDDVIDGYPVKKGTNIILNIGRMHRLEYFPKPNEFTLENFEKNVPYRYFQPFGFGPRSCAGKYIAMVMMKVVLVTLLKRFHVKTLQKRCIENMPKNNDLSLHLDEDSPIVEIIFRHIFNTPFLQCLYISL
Kind of test: Aromatase inhibition in the rat ovarian microsome assay. To be noted: rat ovarian microsomes; substrate (androstenedione) concentration 0.1 μM. Format: biochemical.

Where a name gives a salt, the structure may show the parent alone.

With `c1ccc2c(c1)-c1ccccc1C2n1ccnc1` [1-(9H--fluoren-9-yl)-1H--imidazole hydrochloride], the EC50 was 210 nM.

The record behind these values is US4757082A, “Method of inhibiting aromatase” (Eli Lilly and Company, priority 1984, dated 1988).
